Results: patent US7390822B2, “Substituted 4-phenyl-4-[1H-imidazol-2-yl]-piperidine derivatives for reducing ischaemic damage” (Janssen Pharmaceutica, N.V., priority 2001, dated 2008)

Molecular target: cloned human δ opioid receptor (Homo sapiens, UniProt P41143)
Assay: Radioligand binding, competitive inhibition of [3H]DPDPE
Conditions: Table 6

| SMILES | pIC50 values for the delta opioid receptor agonist test |
| --- | --- |
| CC(c1ccccc1)n1ccnc1C1(c2ccccc2)CCN(c2nc3ccccc3o2)CC1 (stereo not shown) | 7.8 |
| CCN(CC)C(=O)c1ccc(Cn2ccnc2C2(c3ccccc3)CCN(c3nc4ccccc4o3)CC2)cc1 | 7.3 |
| c1ccc(Cn2ccnc2C2(c3ccccc3)CCN(c3ncccn3)CC2)cc1 | 7.7 |
| c1ccc(Cn2ccnc2C2(c3ccccc3)CCN(c3nccs3)CC2)cc1 | 7.9 |
